In general, solubility refers to how much of the substance goes into solution per volume.

Our source for the solubility values is US10766888B1, “HMOX1 inducers” (Mitobridge Inc., priority 2019, dated 2020).

In brackets after ≈: the same amount, converted by molar mass.

The series can be described thus: Kinetic solubility. In kind it is physicochemical. To be noted: Dulbecco's phosphate buffer saline (DPBS), aqueous buffer, kinetic from dmso stock, DPBS pH 7.4, 25° C., 200 μM test compound. Here is the method:
Example 144. Kinetic Solubility
10 μL of 10 mM DMSO stock solution were aliquotted to 490 μL of DMSO solution and separately 490 μL of Dulbecco's phosphate buffer saline, DPBS, pH 7.4 solution in 1.2 mL 96-well plates in duplicate. Final concentration was 200 μM of the test compound. Samples were incubated at 25° C. with shaking at 200 rpm for 16 h. Samples were centrifuged at 3500 rpm for 20 min at 25° C., and supernatant was submitted for HPLC analysis.
Kinetic solubility was measured using the following equation: […]

`CCn1c(Nc2nc3ccc(OC(F)(F)F)cc3o2)nc2cc(C(=O)NCCOC)ccc21` [Example 85, 1-ethyl-N-(2-methoxyethyl)-2-((6-(trifluoromethoxy)benzo[d]oxazol-2-yl)amino)-1H-benzo[d]imidazole-5-carboxamide]: the solubility at 16 h turned out to be 3.3 µM (≈ 1.53 µg/mL).

Take `COCCNC(=O)c1ccc2c(c1)nc(Nc1nc3ccc(OC(F)(F)F)cc3o1)n2CC1CCOC1` (centres unmarked) [Example 88, N-(2-methoxyethyl)-1-((tetrahydrofuran-3-yl)methyl)-2-((6-(trifluoromethoxy)benzo[d]oxazol-2-yl)amino)-1H-benzo[d]imidazole-5-carboxamide]: the solubility at 16 h amounted to 3.9 µM (≈ 2.03 µg/mL). This solubility at 16 h and that of the compound before are within 1.5-fold of each other.
